Values of other authors, collected in paper PMC5412445, “ZeGlobalTox: An Innovative Approach to Address Organ Drug Toxicity Using Zebrafish” (International Journal of Molecular Sciences, 2017).

Test system: humans
Conditions: known toxicity in humans, ref TOXNET (HSDB), Side effects (EMBL), drugs.com, cited from earlier work

C[C@]12CC[C@H](O)C[C@H]1CC[C@@H]1[C@@H]2C[C@@H](O)[C@]2(C)[C@@H](C3=CC(=O)OC3)CC[C@]12O [Digoxigenin, digoxigenin]
Neurotoxicity (toxicity in humans) ([22],[30],[31],[34],[35]): Safe | Hepatotoxicity (toxicity in humans) (ema.europa, [24],[26],[27],[32],[33]): Safe
